Assay results published in patent publication US20260028382A1, “IMMUNOGENIC PEPTIDES AND THEIR USES IN CANCER DIAGNOSIS AND THERAPY” (The Chinese University of Hong Kong, priority 2024, published 2026).

Test system: CD8+ T cells
Assay: IFN-γ ELISpot assay of peptide immunogenicity (peptide-pulsed DC:CD8+ T cell co-culture)
Type: cell-based, human
Settings: pan-DCs loaded with peptide co-cultured with autologous CD8+ T cells for 24 hours; six healthy donors
Text: We obtained peripheral mononuclear cells (PBMCs) from healthy donor buffy coat samples via density gradient centrifugation. We utilized QIAamp DNA Blood Kits (Qiagen) to isolate DNA for HLA typing with LinkSeq™ HLA-ABCDRDQDP+ 384 Kit (One Lambda) on a QuantStudio™ 7 Flex Real-Time PCR System. Human T and dendritic cells (DCs) were enriched from PBMCs using a CD8 cell isolation kit and Pan-DC enrichment kit (Miltenyi Biotec), respectively, and subsequently cultured in RPMI-1640 medium (Life Technologies) supplemented with 10% FBS and 100 U/mL of Penicillin-Streptomycin.
Dendritic cells (DCs) were pulsed with a 10 μg mL^−1 peptide concentration at a cell density of 10^5 cells/mL for 4 hours at 37° C. Following this, the DCs were mixed with autologous CD8+ T cells at a DC:T cell ratio of 1:10. […] The secreted IFN-γ signal was detected using the ELISpot Plus Human IFN-γ (ALP) kit (Mabtech). […]
We utilized ELISpot assay, which quantifies cytokine IFN-γ releasing by CD8^+ T lymphocytes isolated from PBMCs of healthy subjects, to verify the immunogenic potential of candidate peptides. […] Specifically, we chose p2 due to its origin from an extended 5′-UTR and its tumor-specificity based on short-read data. Additionally, we included p9 as it represents a tumor-specific frame-shift product with validation from long-read sequencing. […]

**Q.** How did the “T cell immune response (IFN-γ secretion) compared to the unstimulated control” value turn out when “SLLMWITQV [NY-ESO-1, positive control peptide in the ELISpot assay]” was run?
**A.** significant T cell immune response in five out of six donor samples
